This is an account of results in US20180179198A1, “TRICYCLIC MODULATORS OF TNF SIGNALING” (AbbVie Inc., priority 2015, published 2018).

Amino acid sequences for entries named in this document (tags omitted). Residues count along the entry.
UniProt P01375, 77-233 limits assumed: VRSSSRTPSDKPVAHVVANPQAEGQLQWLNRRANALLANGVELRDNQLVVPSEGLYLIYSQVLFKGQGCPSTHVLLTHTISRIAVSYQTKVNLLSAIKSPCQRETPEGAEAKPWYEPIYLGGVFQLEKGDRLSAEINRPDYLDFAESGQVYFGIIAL

This assay deals with TNFα trimer (Homo sapiens, UniProt P01375). The assay can be described thus: TNFα FP Competitive Binding Assay. The conditions noted are these: read-out: TNF IC50, class symbols A/B/C. On the procedure:
TNFα FP Competitive Binding Assay
• 1. Assay Buffer: Prepare 1× Assay Buffer (Water with 47 mM HEPES, 47 mM NaCl, 0.9 mM EDTA, 0.0071% Triton X-100) by adding 25 mL of 1 M HEPES, 5 mL of 5 M NaCl, 1 mL of 0.5 M EDTA, and 375 μL of a 10% Triton X-100 stock to a fresh 500 mL bottle of water. • 2. Assay Mixture: Prepare fresh Assay Mixture containing 20 nM TNFα trimer (60 nM protein) and 1 nM 2′,7′-difluoro-3′,6′-dihydroxy-N-(2-(2-(2-((4-(isoquinolin-8-yl)-3-(4-(isoquinolin-8-yl)phenethoxy)benzyl)oxy)ethoxy)ethoxy)ethyl)-3-oxo-3H-spiro[isobenzofuran-1,9′-xanthene]-5-carboxamide probe in 1× Assay Buffer.
Compound Plate Preparation
Manual 12-point 1:3 Dilution Plates: (384 well polypropylene plates)
Top concentration of compounds, 10 mM in DMSO, dispensed in rows A-O in columns 1 and 13. Compounds are serially diluted 1:3 with DMSO in columns 2-12 or 14-24 using a 16-channel Matrix pipettor. Plates stored at −20° C.
Discovery Preps 12-point 1:3 Dilution Plates: (384 well assay plates)
Top concentration, 5 mM in DMSO, of compounds placed in rows A-O in columns 1 and 13. Compounds are serially diluted 1:3 with DMSO in columns 2-12 or 14-24. Compound solutions are dispensed into replicate assay plates at 410 nL per well. Plates stored at 4° C.
TNFα FP Competitive Binding Assay Protocol
• 1. Compound plates are warmed to rt. • 2. Fresh Assay Mixture is prepared. • 3. Assay Mixture (20 μL) is dispensed each well of 384 assay plates using a Thermo Multidrop Combi or 16-channel Matrix pipettor. If Manual 12-point 1:3 Dilution Plates are to be tested, Assay Mix is dispensed into empty plates. Discovery Preps 12-point 1:3 Dilution Plates already contain 410 nL compound solution in DMSO. • 4. […] Prior to reading the assay, the plates are placed in a dark cabinet to equilibrate at rt for one hour. • 9. Background-subtracted fluorescence polarization (mP) is measured using a PerkinElmer Envision plate reader. • 10. […]
As to `COc1ccccc1C1CCOc2nc3ccc(-c4cnc(C(C)(C)O)nc4)cn3c21` (stereo not drawn), the IC50 lay within 1 to 10 µM.

For the compound `CN(C)CCCOc1ccc(-c2ccc3nc4n(c3c2)C(c2ccccc2)COC4)cn1` (stereo not drawn), the IC50 lay in the range of 10 to 100 µM.

As to `O=C1NC[C@@H]2CN(c3ncc(-c4ccc5nc6n(c5n4)[C@@]4(COC6)COc5ccccc54)cn3)CCN12`, the IC50 was < 1 µM.
